Results published in patent US4845079A, “Peptidylaminodiols” (priority 1988, dated 1989).

Sequences of proteins named here, by UniProt entry; tags and fusion partners are left off. Residues count along the entry.
UniProt P00797, 67-406: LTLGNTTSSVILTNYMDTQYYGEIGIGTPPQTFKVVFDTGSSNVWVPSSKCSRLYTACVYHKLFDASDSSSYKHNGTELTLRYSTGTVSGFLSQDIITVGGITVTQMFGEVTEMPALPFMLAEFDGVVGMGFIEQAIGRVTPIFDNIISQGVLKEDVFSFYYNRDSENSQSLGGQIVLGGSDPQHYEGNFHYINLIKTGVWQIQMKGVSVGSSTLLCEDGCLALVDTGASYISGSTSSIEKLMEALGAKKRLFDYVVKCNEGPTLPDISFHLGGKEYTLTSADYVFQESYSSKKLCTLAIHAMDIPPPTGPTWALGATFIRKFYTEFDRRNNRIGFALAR

Biological target: T1, human renal renin (Homo sapiens, UniProt P00797)
T1 construct: with human renal renin, free from acid proteolytic activity; from tissue; host or cells: human kidney (concluded from the word 'renal')
Experiment: in vitro inhibition of human renal renin (angiotensin I formed measured by radioimmunoassay)
Format: biochemical
Conditions: human renal renin with renin substrate (human angiotensinogen), 37° C., pH 6.0

In order of rising IC50:
1. 2(S)-[[(1-Piperazinyl)carbonyl]oxy]-3-phenylpropionyl-Phe-His Amide of 2(S)-Amino-1-cyclohexyl-3(R),4(S)-dihydroxy-6-methylheptane [Example 115]  1 nM
2. 2(S)-[[(4-Cbz-1-Piperazinyl)carbonyl]oxy]-3-phenylpropionyl-Phe-His Amide of 2(S)-Amino-1-cyclohexyl-3(R),4(S)-dihydroxy-6-methylheptane [Example 114]  1.3 nM
3. Ethoxycarbonyl-(OBn)Thr-His Amide of 2(S)-Amino-1-cyclohexyl-3(R),4(S)-dihydroxy-6-methylhexane [Example 101]  5 nM
4. (2S,3R,5R,8S,9R,10S)-7-Aza-2-(t butyloxycarbonylamino)-8-(cyclohexylmethyl)-5-isobutyl-12-methyl-1-phenyl- 3,9,10-trihydroxytridecane [Example 169]  6 nM
5. (2S,3R,5R,8S,9R,10S)-7-Aza-2-(t-Butyloxycarbonylamino)-8-(cyclohexylmethyl)-12-methyl 5 -(4-pentenyl)-1-phenyl-3,9,10-trihydroxytridecane [Example 183]  12 nM
